Measurements: BindingDB's records for doi:10.1016/j.bmc.2003.11.015 (Bristol-Myers Squibb Pharmaceutical Research Institute, 2004)

Protein sequences, listed by entry. Tags and fused reporters are not part of them.
UniProt P61169, whole entry: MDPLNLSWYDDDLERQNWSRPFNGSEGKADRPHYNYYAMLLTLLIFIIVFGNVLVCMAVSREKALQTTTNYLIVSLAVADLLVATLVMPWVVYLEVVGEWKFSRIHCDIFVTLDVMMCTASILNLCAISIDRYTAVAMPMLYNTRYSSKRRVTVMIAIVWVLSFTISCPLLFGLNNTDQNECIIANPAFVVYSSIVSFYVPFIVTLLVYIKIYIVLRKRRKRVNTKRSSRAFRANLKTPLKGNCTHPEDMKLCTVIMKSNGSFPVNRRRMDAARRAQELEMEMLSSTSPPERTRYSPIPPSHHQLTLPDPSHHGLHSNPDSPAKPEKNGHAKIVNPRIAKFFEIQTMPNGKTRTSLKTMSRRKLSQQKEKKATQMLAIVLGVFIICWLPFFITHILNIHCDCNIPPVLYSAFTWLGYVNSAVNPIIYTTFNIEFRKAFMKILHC

Biological target: D(2) dopamine receptor (Rattus norvegicus, UniProt P61169)

SMILES: CCCCC1NC[C@H]2c3ccc(O)c(O)c3Cc3cccc1c32 (mixture of isomers) [(+/-)-3-n-butyldinapsoline hydrobromide]
- Ki: 93 nM

Structures can show the parent of a compound that is named as a salt.
